# Experimental data reported in patent publication US8435976B2, “4-substituted pyridin-3-yl-carboxamide compounds and methods of use” (F. Hoffmann-La Roche, priority 2009, dated 2013).
# By UniProt entry, the sequences of proteins in these tests, tags left out.
# UniProt P11309, whole entry: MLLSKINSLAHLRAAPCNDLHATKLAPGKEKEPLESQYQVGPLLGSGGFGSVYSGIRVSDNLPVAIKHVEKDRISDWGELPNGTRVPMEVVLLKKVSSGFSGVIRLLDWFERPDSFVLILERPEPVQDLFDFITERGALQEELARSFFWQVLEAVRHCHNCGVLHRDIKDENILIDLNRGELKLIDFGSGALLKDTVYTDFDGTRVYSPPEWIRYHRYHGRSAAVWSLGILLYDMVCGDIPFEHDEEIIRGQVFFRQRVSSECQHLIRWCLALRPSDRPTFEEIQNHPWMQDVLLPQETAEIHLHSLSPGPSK
# Tests used:
# [1] = target: T1, PIM1 (Homo sapiens, UniProt P11309); experiment: Pim-1 kinase enzymatic assay (Caliper LC3000, FAM-Pimtide substrate); assay type: biochemical; settings: 20 pM PIM1, 10 μM ATP, 90 minutes; read-out: PIM1 LC3K (Ki)
# T1 construct: made in house
# Procedure: (§1) Reaction Buffer contained 10 mM HEPES, pH 7.2, 10 mM MgCl2, 0.01% Tween 20, 2 mM DTT.
# (§2) PIM reactions were carried out in a final volume of 10 μL per well in a 384-well plate. […] The separation of product and substrate was optimized by choosing voltages and pressure using Caliper's Optimizer software (Hopkinton, Mass.). The separation conditions used a downstream voltage of −500V, an upstream voltage of −2150V, and a screening pressure of −1.2 psi. […] Substrate conversion was calculated from the electrophoregram using HTS Well Analyzer software (Caliper Life Sciences, Hopkinton, Mass.). Ki values for the test compound were calculated.
# [2] = target: T2, PIM3 (Homo sapiens, UniProt Q86V86); experiment: Pim-3 kinase enzymatic assay (Caliper LC3000, FAM-Pimtide substrate); assay type: biochemical; settings: 55 pM PIM3, 10 μM ATP, 90 minutes; read-out: PIM3 LC3K (Ki)
# T2 construct: made in house
# Procedure: as §1, §2
# [3] = target: BaF3 PIM1 cells (Homo sapiens, UniProt P11309); experiment: BaF3 PIM1 cell proliferation (Cell Titer Glo); assay type: cell-based; settings: incubated overnight; read-out: Prolif BaF3_PIM1 (IC50)
# Procedure: BaF3 parental line was obtained from the DSMZ repository. BaF3 lines transfected with PIM1 or PIM2 were generated. Mouse IL-3 was purchased from R&D Systems. G418 was purchased from Clontech. Media for BaF3 parental line contained RPMI, 10% FBS, 2 mM L-Glutamine, 2 ng/mL mIL-3. Media for BaF3 PIM1 & 2 lines contained RPMI, 10% FBS, 2 mM L-Glutamine, […]. Media for MM1.S line contained RPMI, 10% FBS, 2 mM L-Glutamine.
# BaF3 parental cells, BaF3 PIM1 cells, BaF3 PIM2 cells, and MM1.S cells were seeded at 2 k/well, 5 k/well, 5 k/well, and 10 k/well respectively, in a 384-well plate, at 45 μL/well. Test compound was added at 5 μL/well. BaF3 cells (parental and transfected) were incubated overnight, while MM1.S cells were incubated for 72 hours at 37° C., 5% CO2. Cell Titer Glo Reagent (Promega) was added at 50 μL/well, the plates were incubated for 30 minutes, and their luminescence read on an HT Analyst. IC50/EC50 values for the test compound were calculated.
smiles,measurement,setting,value
"N[C@H]1CCCN(c2ccncc2NC(=O)c2csc(-c3c(F)cccc3F)n2)C1 [Example 46, (S)-N-(4-(3-aminopiperidin-1-yl)pyridin-3-yl)-2-(2,6-difluorophenyl)thiazole-4-carboxamide]",Ki,[1],264 pM
same,Ki,[2],259 pM
same,GI50,[3],148000 pM
